Patent US6803233B2, “Model for Alzheimer's disease and other neurodegenerative diseases” (priority 2000, dated 2004)

System: reactive microglia
Test: ED-1 immunocytochemistry of cultured brain explants
Format: cell-based, rat
Conditions: ZPAD 20 μM, mevastatin 20 μM or PD98059 50 μM alone, 6 days
Description: Immunocytochemical studies using the monoclonal antibody ED-1 that recognizes reactive microglia were used at 1:1000 dilution following standard immunohistochemical procedures. Microglial activation was determined by measuring cell numbers, optical density, and size of cell bodies using the program NIH Image. Brain tissue was cultured for 12 days and treated with ZPAD (20 μM) in the presence or absence of PD98059 (50 μM) for 6 days (FIG. 18). Cultured explants were then sliced and stained by using monoclonal antibody ED-1 which recognizes reactive microglia, a classical marker of inflammation. […] Rat brain tissues were cultured for 10 days and incubated with vehicle (Cont), ZPAD (20 μM), mevastatin (Mev, 20 μM), or mevastatin plus […]) for 6 days (FIG. 19). Cultured brain explants were then sliced and stained by using monoclonal antibody ED-1, a classical marker for reactive microglia and macrophages.

Question: For `CC[C@H](C)C(=O)O[C@H]1CCC=C2C=C[C@H](C)[C@H](CC[C@@H]3C[C@@H](O)CC(=O)O3)[C@H]21` [mevastatin], which “reaction of microglia (ED-1 staining)” value is on record?
Answer: The value was “induced dramatic morphologic changes of microglia”.
